# Patent publication EP4847525A1, “PREPARATION METHOD FOR AND USE OF LACTOFERRIN AND FORMULATION THEREOF” (dated 2026)
# Assays:
# [1] = tested on: methacryloylated apo-lactoferrin (Apo-LfMA), methacrylic anhydride grafting degree 30%, apo-lactoferrin de-ironed at pH=4.0 (Embodiment 6); assay: SPR (Biacore) binding constant KD of heme binding to lactoferrin; conditions: read-out: KD value of the lactoferrin binding to heme, Embodiment 6, grafting degree 30%, de-ironing at pH 4.0
# Text: (§1) Value of a binding constant KD: The technique used is a surface plasmon resonance (SPR) technique with a Biacore instrument. The SPR principle is used to detect an interaction between a ligand on a biosensor chip and an analyte. To study an interaction between two molecules, one molecule is immobilized onto a chip surface, while the other molecule flows continuously over the chip surface in the form of a solution. […] Calculation formula: KD=kd/ka, where ka is an affinity rate at which heme is bound to the protein, and kd is a dissociation rate.
# (§2) A use of a lactoferrin in binding to heme is provided, and specific steps are as follows. • (1) Acetic acid, sodium acetate (at a molar ratio of 1:1), and EDTA are added to a PBS solution with a pH of 4.0 to prepare a mixed solution, and lactoferrin powder to be de-ironed (Bega, Australia) is then dissolved in the mixed solution at room temperature to prepare a lactoferrin solution to be de-ironed with a concentration of 10 g/100 mL. In the mixed solution, the concentration of PBS is 0.01 M, the total concentration of acetic acid and sodium acetate is 0.1 M, and the concentration of EDTA is 500 mM.
# A usage ratio of methacrylic anhydride to the apo-lactoferrin is 0.03 mL/1 g. A grafting degree of methacrylic anhydride on the methacryloylated apo-lactoferrin is 30%.
# The methacryloylated lactoferrin has 11 heme-binding sites. […]
# [2] = tested on: methacryloylated apo-lactoferrin (100% Apo-LfMA), methacrylic anhydride grafting degree 100%, apo-lactoferrin de-ironed at pH=2.0 (Embodiment 7); assay: as above; conditions: read-out: KD value of the lactoferrin binding to heme, Embodiment 7, grafting degree 100%, de-ironing at pH 2.0
# Text: as §1
# as §2, with “2.0” for “4.0”, “mL.” for “mL. In the mixed solution, the concentration of PBS is 0.01 M, the total concentration of acetic acid and sodium acetate is 0.1 M, and the concentration of EDTA is 500 mM.”
# A molecular weight cutoff of the dialysis bag is 7,000 Da.
# A usage ratio of methacrylic anhydride to the apo-lactoferrin is 2 mL/1 g. A grafting degree of methacrylic anhydride on the methacryloylated apo-lactoferrin is 100%.
# The methacryloylated lactoferrin has 10 heme-binding sites. A KD value of the lactoferrin binding to heme is 2.02 nM.
substance,measurement,setting,value
heme,Kd,[1],0.38 nM
same,Kd,[2],2.02 nM
